How the values were obtained:
Recombinant GST-Tie2 = Recombinant GST-Tie2 (Homo sapiens, UniProt Q02763); test: Tie2 Fluorescence Polarization Kinase Activity Assay (TIE2-FP); conditions: activated Tie2, 200 μM ATP
Description: Tie2 Fluorescence Polarization Kinase Activity Assay: (TIE2-FP)
Activation of Recombinant Tie2 Activation:
Recombinant GST-Tie2 was activated by incubating the enzyme in 20 mM Tris-HCl, pH 7.5, 12 mM MgCl2, 100 mM NaCl, 20 μM sodium vanidate, 1 mM DT and 300 μM ATP at room temperature for 2 hours. The activation mixture was then passed through a NAP-25 desalting column (Pharmacia Biotech cat. no. 17-0852-O2) to remove the free ATP. The activated enzyme was stored as aliquots at −80° C. in 20 mM Tris-HCl, pH 7.5 and 100 mM NaCl.
The final assay conditions were 50 mM HEPES, pH 7.5, 5% DMSO (when screening compounds), 200 μM ATP, 5 mM MgCl2, 1 mM DTT, 50 μM sodium vanidate, 1 nM activated enzyme, and 200 μM peptide. IC50's of compounds were measured under subsaturating ATP (200 μM) and varing concentrations of activated Tie2 and peptide substrate (RFWKYEFWR-OH; MW 1873 Da, TFA salt). Panvera Anti-phosphotyrosine antibody (Cat#P2840) and PTK Green Tracer (Cat#P2842) were used to detect the phosphorylated peptide. Polarization was measured on a TECAN Polarion in 138-second cycles for 30 minutes at room temperature. IC50's were then determined from the % polarization using normal calculation methods.

Protein sequences, listed by entry. Tags and fused reporters are not part of them. Residues count along the entry.
UniProt Q02763, 770-1124 limits assumed: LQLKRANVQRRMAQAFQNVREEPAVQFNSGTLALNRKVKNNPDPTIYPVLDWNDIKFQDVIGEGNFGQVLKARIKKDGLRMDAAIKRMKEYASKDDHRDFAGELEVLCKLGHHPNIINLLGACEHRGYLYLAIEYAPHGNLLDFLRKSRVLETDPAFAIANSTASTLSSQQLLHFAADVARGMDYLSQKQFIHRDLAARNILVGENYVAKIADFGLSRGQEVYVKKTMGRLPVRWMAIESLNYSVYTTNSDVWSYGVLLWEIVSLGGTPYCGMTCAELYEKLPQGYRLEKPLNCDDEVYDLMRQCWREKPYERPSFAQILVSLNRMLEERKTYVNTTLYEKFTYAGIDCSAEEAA
UniProt P35968, 786-1356 limits assumed: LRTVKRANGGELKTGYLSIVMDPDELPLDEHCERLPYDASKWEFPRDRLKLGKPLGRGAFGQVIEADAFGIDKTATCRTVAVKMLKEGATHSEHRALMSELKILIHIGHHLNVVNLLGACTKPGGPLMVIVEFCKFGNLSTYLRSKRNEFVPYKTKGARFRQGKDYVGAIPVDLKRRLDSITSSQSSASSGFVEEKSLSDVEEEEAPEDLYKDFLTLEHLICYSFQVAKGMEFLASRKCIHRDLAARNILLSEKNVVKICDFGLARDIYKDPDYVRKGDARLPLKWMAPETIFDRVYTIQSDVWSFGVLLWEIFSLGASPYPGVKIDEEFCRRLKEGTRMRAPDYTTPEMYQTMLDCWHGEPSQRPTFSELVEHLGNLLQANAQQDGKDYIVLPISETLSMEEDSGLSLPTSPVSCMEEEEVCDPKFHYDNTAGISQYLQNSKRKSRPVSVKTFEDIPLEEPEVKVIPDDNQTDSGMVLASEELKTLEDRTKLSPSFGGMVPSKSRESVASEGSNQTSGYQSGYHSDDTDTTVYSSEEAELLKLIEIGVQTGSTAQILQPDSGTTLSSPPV

GST-VEGFR2 = GST-VEGFR2 (Homo sapiens, UniProt P35968); test: VEGF-R2 Enzyme Assay (VEGF-E), LANCE method; conditions: GST-VEGFR2, 75 μM ATP, peptide phosphorylation
From the text: VEGF-R2 Enzyme Assay VEGF-E)
The VEGF enzyme assay used the LANCE method (Wallac) and GST-VEGFR2, baculovirus expressed recombinant constructs of the intracellular domains of human TIE2 tagged by GST. The method measured the ability of the purified enzymes to catalyse the transfer of the γ-phosphate from ATP onto tyrosine residues in a biotinylated synthetic peptide, (biotin-aminohexyl-EEEEYFELVAKKKK-NH2). This peptide phosphorylation was detected using the following procedure: GST-VEGFR2 was incubated for 40-60 mins at room temperature with 75 μM ATP, 5 mM MgCl2, 0.1 mM DTT, 0.1 mg/mL BSA and the test compound (diluted from a 10 mM stock in DMSO for desired concentration) in 100 mM HEPES buffer. The reaction was stopped by the addition of EDTA (final concentration 50 mM). Streptavidin linked-APC (allophycocyanin, Molecular Probe) and Europium-labeled anti-phosphorylated tyrosile antibody (Wallac) were then added at the final concentration of 15 nM and 1 nM, respectively. The APC signal was measured using an ARVO multilabel counter (Wallac Berthold, Japan). The percent inhibition of activity was calculated relative to blank control wells. The concentration of test compound that inhibits 50% of activity (IC50) was interpolated using nonlinear regression (Levernberg-Marquardt) and the equation, γ=Vmax (1−x/(K+x))+Y2, where “K” was equal to the IC50. […]

[1] = test system: Human umbilical cord endothelial cells (HUVEC); test: VEGF-Driven Cellular Proliferation Assay: BrdU Incorporation Assay (VEGF-C)
Description: VEGF-Driven Cellular Proliferation Assay: BrdU Incorporation Assay (VEGF-C)
Human umbilical cord endothelial cells (HUVEC, Clonetics, CC2519) were passaged in Type I collagen-coated 100-mm petridishes in EGM-MV medium (Clonetics, CC3125) at 37 C in a humidified 5% CO2, 95% air incubator. (HUVEC passaged more than 6 times in vitro were discarded and not subjected to assaying.) The cells were harvested using trypsin/EDTA, counted using a haemocytometer and plated at 5000 cells/well in a Type I-collagen coated 96-well plate (Becton Dickinson, 354407) in M199 medium (Gibco BRL, 12340-030) containing 5% FBS (Hyclone, A 1115-L) and gentamicin (at 50 ug/ml, Gibco BRL). After incubation overnight at 37° C., the media were replaced with 100 ul of M199 serum-free medium containing compounds at various concentrations with 0.6% DMSO and gentamicin. The compounds were diluted in serum-free M199 medium from 10 mM stock solutions prepared in 100% DMSO. […] The incorporation of BrdU into the proliferating HUVEC were analyzed using BrdU Cell Proliferation ELISA (Roche Molecular Biochemicals, 1647229) according to the manufacturer's protocols. The optical density at 450 nm was measured with a multilabel counter (ARVO SX, Wallac). The percent inhibition of cell growth was calculated relative to blank control wells. […]

CN(c1ccc(NC(=O)Nc2cccc(Cl)c2)cc1)c1ccnc(Nc2ccc(S(N)(=O)=O)cc2)n1
+++ (+++ = pIC50 of >7.0): TIE2-FP (Recombinant GST-Tie2) | VEGF-E (GST-VEGFR2) | VEGF-C [1]
